Experimental data as given in patent US20230084144A1, “THERAPEUTIC COMBINATIONS OF DRUGS AND METHODS OF USING THEM” (ConSynance Therapeutics, Inc., priority 2020, published 2023).

The chains behind the UniProt entries cited, without tags or fusion partners.
UniProt P31645, whole entry: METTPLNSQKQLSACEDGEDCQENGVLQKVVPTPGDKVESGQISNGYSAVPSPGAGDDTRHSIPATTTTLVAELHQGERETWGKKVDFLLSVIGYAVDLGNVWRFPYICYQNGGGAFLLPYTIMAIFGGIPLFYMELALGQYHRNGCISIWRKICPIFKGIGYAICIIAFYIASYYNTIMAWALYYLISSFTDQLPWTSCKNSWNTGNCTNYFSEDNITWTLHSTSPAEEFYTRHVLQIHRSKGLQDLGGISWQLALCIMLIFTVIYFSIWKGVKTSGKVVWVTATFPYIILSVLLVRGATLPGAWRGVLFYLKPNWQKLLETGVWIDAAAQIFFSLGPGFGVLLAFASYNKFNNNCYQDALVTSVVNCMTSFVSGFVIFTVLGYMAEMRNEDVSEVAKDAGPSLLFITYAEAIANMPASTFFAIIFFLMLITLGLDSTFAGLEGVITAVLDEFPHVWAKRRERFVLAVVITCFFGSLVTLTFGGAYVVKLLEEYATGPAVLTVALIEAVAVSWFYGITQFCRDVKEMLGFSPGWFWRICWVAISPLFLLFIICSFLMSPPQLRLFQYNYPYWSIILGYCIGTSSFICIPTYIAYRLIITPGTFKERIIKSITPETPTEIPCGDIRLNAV

Molecular target: T1, Transporter, Serotonin (5-Hydroxytryptamine) (SERT) (Homo sapiens, UniProt P31645)
T1 construct: host or cells: HEK-293 cells
Test: Radioligand binding, Transporter, Serotonin (SERT) (Eurofin Discovery 274030)
Settings: 10 nM compound

Clc1ccc(C2CNCc3cc(-c4ccc5ncnn5c4)ccc32)cc1Cl (stereo not shown) [Formula I, 7-([1,2,4]triazolo[1,5-a]pyridin-6-yl)-4-(3,4-dichlorophenyl)-1,2,3,4-tetrahydroisoquinoline]
inhibition at 0.01 µM: 59%
